# PubChem BioAssay AID540275 (National Center for Advancing Translational Sciences (NCATS), 2011)
# The chains behind the UniProt entries cited, without tags or fusion partners.
# UniProt Q8NER1, whole entry: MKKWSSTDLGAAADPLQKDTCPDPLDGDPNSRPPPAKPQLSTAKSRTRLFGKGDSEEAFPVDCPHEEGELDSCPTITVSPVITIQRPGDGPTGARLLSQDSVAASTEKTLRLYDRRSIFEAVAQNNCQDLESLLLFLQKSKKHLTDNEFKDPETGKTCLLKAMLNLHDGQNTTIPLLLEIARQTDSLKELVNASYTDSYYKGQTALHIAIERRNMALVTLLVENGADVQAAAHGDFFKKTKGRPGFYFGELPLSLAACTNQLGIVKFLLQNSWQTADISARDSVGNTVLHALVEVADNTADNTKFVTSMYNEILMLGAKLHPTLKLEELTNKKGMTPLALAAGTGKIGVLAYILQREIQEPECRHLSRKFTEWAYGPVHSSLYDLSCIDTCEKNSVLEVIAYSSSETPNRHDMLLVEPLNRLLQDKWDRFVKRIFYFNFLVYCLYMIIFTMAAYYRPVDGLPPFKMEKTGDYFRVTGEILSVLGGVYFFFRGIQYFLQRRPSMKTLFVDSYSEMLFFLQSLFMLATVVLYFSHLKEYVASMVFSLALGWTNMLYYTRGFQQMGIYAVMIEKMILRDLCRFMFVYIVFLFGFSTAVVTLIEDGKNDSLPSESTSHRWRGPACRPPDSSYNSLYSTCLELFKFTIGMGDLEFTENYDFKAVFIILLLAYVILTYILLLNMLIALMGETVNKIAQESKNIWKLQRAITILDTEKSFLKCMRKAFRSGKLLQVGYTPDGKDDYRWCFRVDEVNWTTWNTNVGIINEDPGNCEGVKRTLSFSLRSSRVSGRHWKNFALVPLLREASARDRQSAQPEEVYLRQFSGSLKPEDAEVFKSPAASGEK
# The entries are a selection whose mix differs from that of the whole data set. Records with an inconclusive call do not appear. Activity calls are given as the source filed them. Rule as the data show it: active = activation above about 80%; inconclusive = between about 30% and that limit; inactive = weaker than that.
# Molecular target: Transient receptor potential cation channel subfamily V member 1 (Homo sapiens) (UniProt Q8NER1)
# Experiment: HTS Assay for Compounds that Act as Agonists of the Vanilloid Receptor 1; also: 0% is about no effect
# Conditions: TRPV1-expressing cells, Fluo-8 calcium influx, agonist mode; at 8.33 µM; stronger effect = higher value
# From the text: The transient receptor potential ion channel, family V, number 1, (TRPV1) is one of the most important molecular transducers of painful stimuli and a potential target for analgesic drug development. Although recent clinical trials with orthosteric antagonists have not produced a successful drug because of a hyperthermia side effect and their tendency to block thermal noxious pain, this ion channel is undeniably well placed in the pain pathway, and the idea of blocking pain signals before they enter the CNS is an excellent concept and of proven efficacy when TRPV1 agonists are used. We propose a new approach involving allosteric modulation to impose an activity-dependent constraint within the context of inflammation and tissue damage that would alter the responsiveness of the channel in a way that an orthosteric vanilloid antagonist cannot achieve. We believe that the allosteric modulator approach has not been explored for this target. The main goal of this proposal is to identify additional, new, potent allosteric modulators of TRPV1 that can be used to investigate TRPV1 function. Our recent report provides evidence of proof of concept, but the compounds are just at the edge of utility in terms of potency. […] The question of whether they can be used as analgesic agents is complex, but if suitable compounds are identified then testing for analgesic properties will be conducted. NIH Chemical Genomics Center [NCGC] NIH Molecular Libraries Probe Centers Network [MLPCN] MLPCN Grant: MH089480-1A1 Assay Submitter (PI): Michael Iadarola, National Institute of Dental and Cranofacial Research
# Upon TRPV1 activation in TRPV1 cells, the channel opens and extracellular cations flow through the channel into the cytosol. A calcium binding dye (Fluo-8) becomes fluorescent when bound to calcium. This dye is pre-loaded into cells and is used as a marker for calcium influx. The amount of accumulated calcium is precisely quantified using the FDSS kinetic reader and the calcium dye. For the HTS assay, freshly prepared cells are plated at a density of 2000/well in 3 ul medium in 1536-well plates and cultured overnight at 35.5C. Cells will be loaded with 1 ul of the homogeneous calcium dye (ABD Bioquest) at room temperature for 40 to 90 minutes. Plates will be loaded into the FDSS kinetic reader and a 1 sec / cycle for 10 second baseline signal will be measured. Compound library will then be added with a pintool at 23 nl and measured kinetically for 3 minutes. This portion of the read is considered the agonist portion of the screen. Following the 3 minutes of incubation, an on board pipettor will deliver 1 ul of capsaicin for a final concentration equal to the EC20. Signal will be measured kinetically for an additional 2 minutes. This portion of the read is considered the allosteric enhancer portion of the screen. The FDSS reader has a standard filter set capable of measuring calcium bound Fluo-8 (ex=480 and em=520 nm).
row,SMILES,activation
1,CC1=C2N=C(C=C3N=C(C(C)=C4[N-][C@@](C)([C@@H]5N=C1[C@](C)(CCC(=O)NC[C@@H](C)OP(=O)([O-])O[C@H]1[C@@H](O)[C@@H](n6cnc7cc(C)c(C)cc76)O[C@@H]1CO)[C@H]5CC(N)=O)[C@@](C)(CC(N)=O)[C@@H]4CCC(N)=O)[C@@](C)(CC(N)=O)[C@@H]3CCC(N)=O)C(C)(C)[C@@H]2CCC(N)=O.[C-]#N.[Co+3],inactive: -1.81%
2,O=[N+]([O-])c1cc([N+](=O)[O-])c(Nc2nnnn2CCO)c([N+](=O)[O-])c1,inactive: -5.3%
3,CCCOc1ccc(NP(C)(=O)Oc2ccc(Cl)cc2)cc1 (stereo not drawn),inactive: 1.12%
4,CP(=O)(Nc1ccc(SC(F)(F)F)cc1)Oc1ccccc1 (stereo not drawn),inactive: 13.9%
5,CN1CCCCC1COC(=O)C1(O)c2ccccc2CCc2ccccc21 (stereo not drawn),inactive: -8.82%
6,COc1ccccc1OP(C)(=O)Nc1c(C)cccc1C (stereo not drawn),inactive: -3.55%
7,O=[N+]([O-])c1cc([N+](=O)[O-])c(-n2nnc3ccccc32)c([N+](=O)[O-])c1,inactive: -1.62%
8,Cc1nc2ccc3ccccc3c2s1.O=[N+]([O-])c1cc([N+](=O)[O-])c(O)c([N+](=O)[O-])c1,inactive: 4.08%
9,CCOC(=O)c1ccc(NP(C)(=O)Oc2cc(C)cc(C)c2)cc1 (stereo not drawn),inactive: 2.9%
10,Cc1cc(C)cc(OP(C)(=O)Nc2ccc(C)cc2C)c1 (stereo not drawn),inactive: -1.34%
11,COc1ccccc1OP(C)(=O)Nc1cccc(Br)c1 (stereo not drawn),inactive: -3.51%
12,Cc1ccc(C)c(NP(C)(=O)Oc2ccccc2)c1 (stereo not drawn),inactive: 6.6%
13,Cc1cc(C)cc(OP(C)(=O)Nc2ccccn2)c1 (stereo not drawn),inactive: -1.92%
14,CP(=O)(Nc1cccc(Br)c1)Oc1ccccc1 (stereo not drawn),inactive: 21.1%
15,CC1=NCCc2c1[nH]c1ccccc21.O=[N+]([O-])c1cc([N+](=O)[O-])c(O)c([N+](=O)[O-])c1,inactive: -1.66%
16,O=[N+]([O-])c1ccc2c(c1)C=Nc1ccccc1O2,inactive: 4.25%
17,CC(C)(C)c1ccc(OP(C)(=O)Nc2ccc(SC(F)(F)F)cc2)cc1 (stereo not drawn),inactive: 2.86%
18,Cc1cccc(C)c1OP(C)(N)=O (stereo not drawn),inactive: -2.51%
19,O=[N+]([O-])c1cc([N+](=O)[O-])c(Nc2cccnc2)c([N+](=O)[O-])c1,inactive: 2.86%
20,Cc1cc(C)cc(OP(C)(N)=O)c1 (stereo not drawn),inactive: -2.81%
21,COc1ccccc1OP(C)(=O)Nc1cc(Cl)ccc1C (stereo not drawn),inactive: -1.6%
22,COc1ccc(OP(C)(=O)Nc2cccc(F)c2)cc1 (stereo not drawn),inactive: -2.41%
23,COc1ccccc1OP(C)(=O)Nc1ccc(C)cc1 (stereo not drawn),inactive: -5.56%
24,Cc1ccc(NP(C)(=O)Oc2ccccc2)c(C)c1 (stereo not drawn),inactive: -1.67%
25,CCOC(=O)c1ccc(NP(C)(=O)Oc2ccccc2)cc1 (stereo not drawn),inactive: -3.14%
26,CCN(CC)CCCOC(=O)C(O)(c1ccccc1)c1ccccc1,inactive: -0.281%

row,SMILES,activation
1,CP(=O)(NC(=O)Nc1ccccc1)Oc1ccccc1 (stereo not drawn),inactive: -0.0434%
2,Cc1cc(C)cc(OP(C)(=O)Nc2ccc(SC(F)(F)F)cc2)c1 (stereo not drawn),inactive: 8.38%
3,CP(=O)(Nc1ccc(SC(F)(F)F)cc1)Oc1ccc(Cl)cc1 (stereo not drawn),inactive: 26.4%
4,Cc1cccc(C)c1OP(C)(=O)Nc1ccc(SC(F)(F)F)cc1 (stereo not drawn),inactive: 10.3%
5,CP(=O)(Nc1ccccn1)Oc1ccc(Cl)cc1 (stereo not drawn),inactive: 2.52%
6,CCOC(=O)c1ccc(NP(C)(=O)Oc2ccc(OC)cc2)cc1 (stereo not drawn),inactive: -4.8%
7,CCOP(C)(=S)SCC(=O)NC(C)C(=O)O (stereo not drawn),inactive: -1.47%
8,CP(=O)(Nc1ccccc1Br)Oc1ccccc1 (stereo not drawn),inactive: -4.74%
9,COc1ccccc1OP(C)(=O)Nc1ccccc1 (stereo not drawn),inactive: 1.23%
10,CP(=S)(Nn1cnnc1)Oc1ccccc1 (stereo not drawn),inactive: 1.37%
11,CCOC(=O)c1ccc(NP(C)(=O)Oc2ccc(Cl)cc2)cc1 (stereo not drawn),inactive: 4.99%
12,COc1ccccc1OP(C)(=O)Nc1c(C)n(C)n(-c2ccccc2)c1=O (stereo not drawn),inactive: -1.65%
13,O=C(OCCCN1CCCC1)C(O)(c1ccccc1)C1CCCCC1 (stereo not drawn),inactive: 2.84%
14,CP(=O)(Oc1ccccc1)N1CCOC1=O (stereo not drawn),inactive: 6.65%
15,CCc1ccc(OP(C)(=O)Nc2cccnc2)cc1 (stereo not drawn),inactive: 4.34%
16,CCN(CC)CC(O)COC(=O)C(O)(c1ccccc1)C1CCCCC1 (stereo not drawn),inactive: 3.73%
17,COc1ccc(OP(C)(=O)Nc2ccc(Br)cc2)cc1 (stereo not drawn),inactive: 2.93%
18,CN(C)C(=O)c1c([N+](=O)[O-])cc([N+](=O)[O-])cc1[N+](=O)[O-],inactive: 0.13%
19,COc1ccccc1OP(C)(=O)Nc1ccccc1Br (stereo not drawn),inactive: -1.04%
20,CC(C)(C)c1ccc(OP(C)(=O)O)cc1,inactive: 0.646%
21,CP(=O)(Nc1ccc(Cl)cc1)Oc1ccc(F)cc1 (stereo not drawn),inactive: 5.5%
22,COc1ccc(OP(C)(=O)Nc2ccccn2)cc1 (stereo not drawn),inactive: -3.26%
23,CN(C)CCOC(=O)C(O)(c1ccccc1)C1CCCC1 (stereo not drawn),inactive: 1.35%
24,COc1ccccc1OP(C)(=O)Nc1ccc(Br)cc1 (stereo not drawn),inactive: -15.2%
25,CP(=O)(Nc1ccccn1)Oc1ccccc1 (stereo not drawn),inactive: -2.71%
26,COc1ccccc1OP(C)(=O)Nc1ccc(C)cc1C (stereo not drawn),inactive: -1.64%

row,SMILES,activation
1,CCc1ccc(OP(C)(=O)O)cc1,inactive: -4.79%
2,Cc1c(NP(C)(=O)Oc2ccc(C(C)C)cc2)c(=O)n(-c2ccccc2)n1C (stereo not drawn),inactive: -1.47%
3,O=[N+]([O-])c1cc([N+](=O)[O-])c(Nc2ccccn2)c([N+](=O)[O-])c1,inactive: -0.412%
4,COc1ccccc1OP(C)(=O)Nc1ccc(C)c(C)c1 (stereo not drawn),inactive: 0.91%
5,COc1ccc(OP(C)(=O)Nc2ccccc2Br)cc1 (stereo not drawn),inactive: 2.16%
6,Cc1cc(C)cc(OP(C)(=O)Nc2cccc(C(F)(F)F)c2)c1 (stereo not drawn),inactive: 15.6%
7,CP(=O)(Nc1ccc(Cl)cc1Cl)Oc1ccccc1 (stereo not drawn),inactive: 0.742%
8,CP(=O)(OCCOc1ccccc1)OCCOc1ccccc1,inactive: 3.79%
9,Cc1nc2ccc3ccccc3c2o1.O=[N+]([O-])c1cc([N+](=O)[O-])c(O)c([N+](=O)[O-])c1,inactive: -1.1%
10,CCOC(=O)c1ccc(NP(C)(=O)Oc2ccc(F)cc2)cc1 (stereo not drawn),inactive: 2.94%
11,COc1ccc(OP(C)(=O)Nc2ccc(SC(F)(F)F)cc2)cc1 (stereo not drawn),inactive: 12.3%
12,CP(=O)(Nc1ccccc1)Oc1ccc(F)cc1 (stereo not drawn),inactive: 6.49%
13,CCCCCOc1ccc(NP(C)(=O)Oc2ccc(Cl)cc2Cl)cc1 (stereo not drawn),inactive: 8.79%
14,CCN(CC)CCCOC(=O)C(O)(c1ccccc1)C1CCCCC1 (stereo not drawn),inactive: -4.72%
15,CP(=O)(Nc1ccccc1F)Oc1ccccc1 (stereo not drawn),inactive: -0.748%
16,CC(C)c1ccc(OP(C)(=O)Nc2ccc(SC(F)(F)F)cc2)cc1 (stereo not drawn),inactive: 4.56%
17,O=C(OCCN1CCN(CCOCc2ccccc2)CC1)C(O)(c1ccccc1)c1ccccc1,inactive: -1.23%
18,CCOP(C)(=S)SCC(=O)NC(C)(CC)C(=O)O (stereo not drawn),inactive: 0.245%
19,CP(=O)(Nc1ccc(SC(F)(F)F)cc1)Oc1ccc(F)cc1 (stereo not drawn),inactive: 17%
20,Cc1ccccc1NP(C)(=O)Nc1ccccc1C,inactive: -0.661%
21,CP(=O)(Nc1ccc2c(c1)OCCO2)Oc1ccccc1 (stereo not drawn),inactive: 5.62%
22,CN(C)CCOC(=O)C(O)(c1ccccc1)C1CCCCC1 (stereo not drawn),inactive: 2.36%
23,COc1ccc(NP(C)(=O)Oc2ccccc2OC)cc1 (stereo not drawn),inactive: 2.72%
24,COc1ccc(OP(C)(=O)Nc2cccc(Br)c2)cc1 (stereo not drawn),inactive: 4.02%
25,O=[N+]([O-])c1ccc(OP2(=O)COCCO2)cc1 (stereo not drawn),inactive: 1.64%
26,Cc1cc(-c2cccc3ccccc23)c(C)cn1.O=[N+]([O-])c1cc([N+](=O)[O-])c(O)c([N+](=O)[O-])c1,inactive: 8.04%
